Experimental data as given in US10112937B2, “P2X7 modulators and methods of use” (Janssen Pharmaceutica NV, priority 2013, dated 2018).

By UniProt entry, the sequences of proteins in these tests, tags left out. Where a name states a change or a piece, a line headed by the entry shows the natural chain unless it says otherwise.
UniProt Q99572: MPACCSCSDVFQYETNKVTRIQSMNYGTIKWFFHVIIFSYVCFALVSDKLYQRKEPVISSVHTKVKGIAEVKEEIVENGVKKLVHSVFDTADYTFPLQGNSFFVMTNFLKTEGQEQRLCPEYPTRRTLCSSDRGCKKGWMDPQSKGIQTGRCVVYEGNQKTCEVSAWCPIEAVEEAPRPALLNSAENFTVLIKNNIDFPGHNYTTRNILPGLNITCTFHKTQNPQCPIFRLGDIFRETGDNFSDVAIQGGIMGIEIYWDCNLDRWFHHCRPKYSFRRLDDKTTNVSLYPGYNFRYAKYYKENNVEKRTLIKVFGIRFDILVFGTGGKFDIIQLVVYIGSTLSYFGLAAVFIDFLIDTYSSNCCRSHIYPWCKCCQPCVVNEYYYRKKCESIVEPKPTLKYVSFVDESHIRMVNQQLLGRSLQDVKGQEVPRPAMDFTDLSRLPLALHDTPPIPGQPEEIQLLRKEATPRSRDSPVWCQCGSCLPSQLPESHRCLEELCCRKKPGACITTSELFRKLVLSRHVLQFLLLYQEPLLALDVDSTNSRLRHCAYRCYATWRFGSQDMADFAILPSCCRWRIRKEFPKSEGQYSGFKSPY
UniProt Q64663: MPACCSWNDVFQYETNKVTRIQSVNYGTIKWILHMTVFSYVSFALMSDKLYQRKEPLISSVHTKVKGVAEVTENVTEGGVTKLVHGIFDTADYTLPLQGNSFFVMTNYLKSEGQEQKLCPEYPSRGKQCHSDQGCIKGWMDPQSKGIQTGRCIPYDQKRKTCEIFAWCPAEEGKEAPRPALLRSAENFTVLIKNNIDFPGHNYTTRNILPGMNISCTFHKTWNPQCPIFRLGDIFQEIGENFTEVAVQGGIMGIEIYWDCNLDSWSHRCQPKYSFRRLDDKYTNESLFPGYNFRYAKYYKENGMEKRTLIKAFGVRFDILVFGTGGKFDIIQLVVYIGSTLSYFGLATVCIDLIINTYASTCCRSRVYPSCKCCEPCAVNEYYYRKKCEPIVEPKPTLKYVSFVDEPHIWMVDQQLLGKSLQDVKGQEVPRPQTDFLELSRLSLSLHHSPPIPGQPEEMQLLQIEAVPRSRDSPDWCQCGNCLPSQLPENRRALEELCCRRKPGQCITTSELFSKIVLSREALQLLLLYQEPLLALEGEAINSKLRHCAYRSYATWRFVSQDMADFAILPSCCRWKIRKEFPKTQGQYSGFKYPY

Experiments:
human P2X7 [1] = biological target: T1, human P2X7 (Homo sapiens (Human), UniProt Q99572); assay: Ca2+ flux (FLIPR) in 1321N1 cells expressing recombinant human P2X7; format: cell-based;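 also: cells loaded with Calcium-4 dye, preincubated with test compound for 30 min, fluorescence change read 180 s after agonist addition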
rat P2X7 [2] = biological target: T2, rat P2X7 (Rattus norvegicus (Rat), UniProt Q64663); assay: Ca2+ flux (FLIPR) in 1321N1 cells expressing recombinant rat P2X7; format: cell-based; settings: recombinant rat P2X7, 250 μM BzATP;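 also: Calcium-4 dye fluorescence change read 180 s after agonist addition, with cells preincubated 30 min with compound and dye in 96-well plates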
rat P2X7 [3] = biological target: T2, rat P2X7; assay: Radioligand binding ([3H]A-804598), rat P2X7-1321N1 cell membranes; settings: rat P2X7-1321N1 membranes, tritiated A-804598
human P2X7 [4] = biological target: T1, human P2X7; assay: Radioligand binding ([3H]A-804598), human P2X7-1321N1 cell membranes; settings: human P2X7-1321N1 membranes, tritiated A-804598
[5] = 1321N1 cells, recombinant human P2X7, 250 μM BzATP

| IC50 (human P2X7 [1]; [5]) [nM] | IC50 (rat P2X7 [2]) [nM] | Structure (SMILES) | other results |
| --- | --- | --- | --- |
| – | 303 | C[C@@H]1c2ncn(-c3ccc(F)cc3)c2CCN1C(=O)c1cccc(C(F)(F)F)c1Cl (single isomer, unassigned) [Example 46, (4R*)-5-{[2-Chloro-3-(trifluoromethyl)phenyl]carbonyl}-1-(4-fluorophenyl)-4-methyl-4,5,6,7-tetrahydro-1H-imidazo[4,5-c]pyridine] | – |
| – | – | Cc1c(C(=O)N2CCc3c(nnn3-c3ncccn3)[C@H]2C)cccc1C(F)(F)F (single isomer, unassigned) [Example 188, (R*)-(4-methyl-1-(pyrimidin-2-yl)-6,7-dihydro-1H-[1,2,3]triazolo[4,5-c]pyridin-5(4H)-yl)(2-methyl-3-(trifluoromethyl)phenyl)methanone] | Ki (rat P2X7 [3]): 2.5 nM |
| – | 301 | C[C@@H]1c2ncn(-c3ncc(F)cn3)c2CCN1C(=O)c1cccc(C(F)(F)F)c1Cl (single isomer, unassigned) [Example 193, (R*)-(2-Chloro-3-(trifluoromethyl)phenyl)(1-(5-fluoropyrimidin-2-yl)-4-methyl-6,7-dihydro-1H-imidazo[4,5-c]pyridin-5(4H)-yl)methanone] | – |
| > 10000 | > 10000 | Cc1ccnc(-n2nnc3c2CCN(C(=O)c2ccnc(C(F)(F)F)c2Cl)[C@H]3C)c1 (single isomer, unassigned) [Example 360, (S*)-(3-chloro-2-(trifluoromethyl)pyridin-4-yl)(4-methyl-1-(4-methylpyridin-2-yl)-6,7-dihydro-1H-[1,2,3]triazolo[4,5-c]pyridin-5(4H)-yl)methanone] | – |
| – | 346 | Cc1ccnc(-n2nnc3c2CCN(C(=O)c2cccc(Cl)c2Cl)[C@@H]3C)c1 (single isomer, unassigned) [Example 394, (R*)-(2,3-dichlorophenyl)(4-methyl-1-(4-methylpyridin-2-yl)-6,7-dihydro-1H-[1,2,3]triazolo[4,5-c]pyridin-5(4H)-yl)methanone] | – |
| 2600 | – | C[C@H]1c2ncn(-c3ccc(F)cn3)c2CCN1C(=O)c1cccc(C(F)(F)F)c1Cl (stereo in doubt) [Example 41, (4S*)-5-{[2-Fluoro-3-(trifluoromethyl)phenyl]carbonyl}-4-methyl-1-pyridin-2-yl-4,5,6,7-tetrahydro-1H-imidazo[4,5-c]pyridine] | – |
| – | 609 | O=C(c1cccc(C(F)(F)F)c1Cl)N1CCc2c(ncn2-c2ccccn2)C1 [Example 1, (2-Chloro-3-(trifluoromethyl)phenyl)(1-(pyridin-2-yl)-6,7-dihydro-1H-imidazo[4,5-c]pyridin-5(4H)-yl)methanone] | – |
| 89 | – | O=C(c1cccc(Cl)c1Cl)N1CCc2c(ncn2-c2ccccc2)C1 [Example 3, (2,3-Dichlorophenyl)(1-phenyl-6,7-dihydro-1H-imidazo[4,5-c]pyridin-5(4H)-yl)methanone] | – |
| 14.2 | 592 | CC1c2ncn(-c3ccc(F)cn3)c2CCN1C(=O)c1cccc(C(F)(F)F)c1Cl (stereo not shown) [Example 11, (2-Chloro-3-(trifluoromethyl)phenyl)(1-(5-fluoropyridin-2-yl)-4-methyl-6,7-dihydro-1H-imidazo[4,5-c]pyridin-5(4H)-yl)methanone] | – |
| – | 135 | CCC1c2ncn(-c3cnccn3)c2CCN1C(=O)c1cccc(C(F)(F)F)c1Cl (stereo not shown) [Example 15, (2-Chloro-3-(trifluoromethyl)phenyl)(4-ethyl-1-(pyrazin-2-yl)-6,7-dihydro-1H-imidazo[4,5-c]pyridin-5(4H)-yl)methanone] | – |
| 33.9 | 295 | CC1c2ncn(-c3ccccn3)c2CCN1C(=O)c1cccc(C(F)(F)F)c1Cl (stereo not shown) [Example 17, (2-Chloro-3-(trifluoromethyl)phenyl)(4-methyl-1-(pyridin-2-yl)-6,7-dihydro-1H-imidazo[4,5-c]pyridin-5(4H)-yl)methanone] | – |
| – | 2320 | CC1c2ncn(-c3ncccc3F)c2CCN1C(=O)c1cccc(C(F)(F)F)c1Cl (stereo not shown) [Example 21, (2-Chloro-3-(trifluoromethyl)phenyl)(1-(3-fluoropyridin-2-yl)-4-methyl-6,7-dihydro-1H-imidazo[4,5-c]pyridin-5(4H)-yl)methanone] | – |
| 9.6 | – | CC1c2ncn(-c3ncc(F)cn3)c2CCN1C(=O)c1cccc(C(F)(F)F)c1Cl (stereo not shown) [Example 22, (2-Chloro-3-(trifluoromethyl)phenyl)(1-(5-fluoropyrimidin-2-yl)-4-methyl-6,7-dihydro-1H-imidazo[4,5-c]pyridin-5(4H)-yl)methanone] | – |
| 30 | – | CC1c2ncn(-c3ncccn3)c2CCN1C(=O)c1cccc(C(F)(F)F)c1Cl (stereo not shown) [Example 23, (2-Chloro-3-(trifluoromethyl)phenyl)(4-methyl-1-(pyrimidin-2-yl)-6,7-dihydro-1H-imidazo[4,5-c]pyridin-5(4H)-yl)methanone] | – |
| 164 | – | CCOC(=O)C1c2ncn(-c3ccccc3)c2CCN1C(=O)c1cccc(Cl)c1Cl (stereo not shown) [Example 27, Ethyl 5-(2,3-dichlorobenzoyl)-1-phenyl-4,5,6,7-tetrahydro-1H-imidazo[4,5-c]pyridine-4-carboxylate] | – |
| 11.1 | – | O=C(c1cccc(C(F)(F)F)c1Cl)N1CCc2c(ncn2-c2ccccn2)C1CF (stereo not shown) [Example 32, (2-Chloro-3-(trifluoromethyl)phenyl)(4-(fluoromethyl)-1-(pyridin-2-yl)-6,7-dihydro-1H-imidazo[4,5-c]pyridin-5(4H)-yl)methanone] | – |
| 3.8 | – | O=C(c1cccc(C(F)(F)F)c1Cl)N1CCc2c(nnn2-c2ccccn2)C1 [Example 63, 5-{[2-Chloro-3-(trifluoromethyl)phenyl]carbonyl}-1-pyridin-2-yl-4,5,6,7-tetrahydro-1H-[1,2,3]triazolo[4,5-c]pyridine] | – |
| – | 2880 | O=C(c1cccc(C(F)(F)F)c1Cl)N1CCc2c(nnn2-c2ncc(F)cn2)C1 [Example 64, 5-{[2-Chloro-3-(trifluoromethyl)phenyl]carbonyl}-1-(5-fluoropyrimidin-2-yl)-4,5,6,7-tetrahydro-1H-[1,2,3]triazolo[4,5-c]pyridine] | Ki (rat P2X7 [3]): 21.6 nM |
| – | – | O=C(c1cccc(C(F)(F)F)c1Cl)N1CCc2c(nnn2-c2ncccn2)C1 [Example 65, 5-{[2-Chloro-3-(trifluoromethyl)phenyl]carbonyl}-1-pyrimidin-2-yl-4,5,6,7-tetrahydro-1H-[1,2,3]triazolo[4,5-c]pyridine] | Ki (rat P2X7 [3]): 2.8 nM |
| 387 | – | O=C(c1ccc(Cl)cc1Cl)N1CCc2c(nnn2-c2ncccn2)C1 [Example 257, (2,4-dichlorophenyl)(1-(pyrimidin-2-yl)-6,7-dihydro-1H-[1,2,3]triazolo[4,5-c]pyridin-5(4H)-yl)methanone] | – |
| 28.1 | – | O=C(c1cccc(C(F)(F)F)c1Cl)N1CCc2c(ncn2-c2ccc(F)cn2)C1 [Example 315, (2-chloro-3-(trifluoromethyl)phenyl)(1-(5-fluoropyridin-2-yl)-6,7-dihydro-1H-imidazo[4,5-c]pyridin-5(4H)-yl)methanone] | – |
| 88.7 | – | Cc1ccnc(-n2nnc3c2CCN(C(=O)c2ccnc(C(F)(F)F)c2F)C3C)c1 (stereo not shown) [Example 355, (3-fluoro-2-(trifluoromethyl)pyridin-4-yl)(4-methyl-1-(4-methylpyridin-2-yl)-6,7-dihydro-1H-[1,2,3]triazolo[4,5-c]pyridin-5(4H)-yl)methanone] | Ki (human P2X7 [4]): 60.3 nM |
| – | – | Cc1ccnc(-n2nnc3c2CCN(C(=O)c2ccnc(C(F)(F)F)c2Cl)C3C)c1 (stereo not shown) [Example 358, (3-chloro-2-(trifluoromethyl)pyridin-4-yl)(4-methyl-1-(4-methylpyridin-2-yl)-6,7-dihydro-1H-[1,2,3]triazolo[4,5-c]pyridin-5(4H)-yl)methanone] | Ki (human P2X7 [4]): 38 nM |
| 38.5 | – | Cc1cc(-n2nnc3c2CCN(C(=O)c2cccc(C(F)(F)F)c2Cl)C3C)ncc1F (stereo not shown) [Example 381, (2-chloro-3-(trifluoromethyl)phenyl)(1-(5-fluoro-4-methylpyridin-2-yl)-4-methyl-6,7-dihydro-1H-[1,2,3]triazolo[4,5-c]pyridin-5(4H)-yl)methanone] | Ki (human P2X7 [4]): 120 nM |
| 46.1 | – | Cc1cccc(-n2nnc3c2CCN(C(=O)c2cccc(C(F)(F)F)c2F)C3C)n1 (stereo not shown) [Example 385, (2-fluoro-3-(trifluoromethyl)phenyl)(4-methyl-1-(6-methylpyridin-2-yl)-6,7-dihydro-1H-[1,2,3]triazolo[4,5-c]pyridin-5(4H)-yl)methanone] | – |
| 21.9 | – | Cc1ccnc(-n2nnc3c2CCN(C(=O)c2cccc(Cl)c2C)C3C)c1 (stereo not shown) [Example 388, (3-chloro-2-methylphenyl)(4-methyl-1-(4-methylpyridin-2-yl)-6,7-dihydro-1H-[1,2,3]triazolo[4,5-c]pyridin-5(4H)-yl)methanone] | – |
| – | – | CC1c2n[nH]c(-c3ccccn3)c2CCN1C(=O)c1cccc(C(F)(F)F)c1Cl (stereo not shown) [Example 432, (2-chloro-3-(trifluoromethyl)phenyl)(7-methyl-3-(pyridin-2-yl)-4,5-dihydro-2H-pyrazolo[3,4-c]pyridin-6(7H)-yl)methanone] | IC50 (human P2X7 [1]; Ca2+ flux, 250 μM BzATP, human P2X7 1321N1 cells): 12.6 nM |

| Structure (SMILES) | IC50 (human P2X7 [1]; [5]) [nM] | IC50 (rat P2X7 [2]) [nM] | other results |
| --- | --- | --- | --- |
| CC1c2ncn(-c3ccccn3)c2CCN1C(=O)c1cccc(C(F)(F)F)c1F (single isomer, unassigned) [Example 42, (4R*)-5-{[2-Fluoro-3-(trifluoromethyl)phenyl]carbonyl}-4-methyl-1-pyridin-2-yl-4,5,6,7-tetrahydro-1H-imidazo[4,5-c]pyridine] | 48.8 | – | – |
| CC1c2ncn(-c3ccccc3)c2CCN1C(=O)c1cccc(C(F)(F)F)c1Cl (stereo not shown) [Example 12, (2-Chloro-3-(trifluoromethyl)phenyl)(4-methyl-1-phenyl-6,7-dihydro-1H-imidazo[4,5-c]pyridin-5(4H)-yl)methanone] | – | 766 | – |
| O=C(c1cccc(C(F)(F)F)c1Cl)N1CCc2c(nnn2-c2cnccn2)C1 [Example 91, 5-{[2-Chloro-3-(trifluoromethyl)phenyl]carbonyl}-1-pyrazin-2-yl-4,5,6,7-tetrahydro-1H-[1,2,3]triazolo[4,5-c]pyridine] | 2.7 | – | Ki (rat P2X7 [3]): 6.8 nM |
